Source: patent US20230365592A1 (Agios Pharmaceuticals, Inc., priority 2022, published 2023)

Molecular target: T1, human PAH with the R408W mutation (Homo sapiens, UniProt P00439, R408W)
T1 construct: expressed in transfected cells
T1 sequence (P00439 1-452 R408W): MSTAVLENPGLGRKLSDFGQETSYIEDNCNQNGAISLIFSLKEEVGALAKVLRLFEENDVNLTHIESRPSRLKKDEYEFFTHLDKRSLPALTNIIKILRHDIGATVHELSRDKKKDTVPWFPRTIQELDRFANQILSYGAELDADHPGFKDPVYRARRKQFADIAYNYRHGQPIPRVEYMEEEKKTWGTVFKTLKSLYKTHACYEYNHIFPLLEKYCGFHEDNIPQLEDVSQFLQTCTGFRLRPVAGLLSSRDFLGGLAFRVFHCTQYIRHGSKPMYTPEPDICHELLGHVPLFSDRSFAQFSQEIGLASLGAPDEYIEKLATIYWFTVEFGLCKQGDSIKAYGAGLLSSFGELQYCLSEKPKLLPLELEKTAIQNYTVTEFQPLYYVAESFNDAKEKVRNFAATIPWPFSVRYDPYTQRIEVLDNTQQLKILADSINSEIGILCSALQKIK
Assay: Cell Based Phenylalanine Flux Assay;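 further: after compound treatment, cells received sepiapterin plus isotope-labelled Phenylalanine for 4 hours, then labelled Tyrosine in the medium was quantified, 10-point 2-fold dilution series run in duplicate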
Conditions: 24 hrs compound incubation, 13C-Tyrosine by LC-MS, average where tested multiple times

[1] = A375 cells expressing human R408W PAH

| Structure (SMILES) | AC50 [1] [µM] | AC50 (A375 cells expressing human PAH R408W) [µM] |
| --- | --- | --- |
| Cc1cccn2nc([C@H]3c4nc[nH]c4CCN3C(=O)c3cnn4cc(C5CC5)ccc34)cc12 [Example 1695, (R)-(6-cyclopropylpyrazolo[1,5-a]pyridin-3-yl)(4-(4-methylpyrazolo[1,5-a]pyridin-2-yl)-6,7-dihydro-1H-imidazo[4,5-c]pyridin-5(4H)-yl)methanone] | > 5 | – |
| Cc1cccn2nc([C@@H]3c4nc[nH]c4CCN3C(=O)c3cnn4cc(C5CC5)ccc34)cc12 [Example 1694, (S)-(6-cyclopropylpyrazolo[1,5-a]pyridin-3-yl)(4-(4-methylpyrazolo[1,5-a]pyridin-2-yl)-6,7-dihydro-1H-imidazo[4,5-c]pyridin-5(4H)-yl)methanone] | < 0.5 | – |
| CC1(c2nnc(N3CCc4[nH]cnc4[C@H]3c3cc4c(F)cccn4n3)o2)CC1 [Example 2515, (S)-2-(4-(4-fluoropyrazolo[1,5-a]pyridin-2-yl)-1,4,6,7-tetrahydro-5H-imidazo[4,5-c]pyridin-5-yl)-5-(1-methylcyclopropyl)-1,3,4-oxadiazole] | – | 1 to 5 |
